# Apparent affinities of Ab-14 variants for a coronavirus HR2 peptide

Source: Li et al. 2023 (doi:10.1038/s41467-023-39022-2), MIT Lincoln Laboratory and A-Alpha Bio; data file from the FLAb repository.

The target is the same throughout: PDVDLGDISGINAS, from the HR2 region of SARS-CoV-2 spike.

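Phage display of a naive human antibody library on the peptide gave the parent. This is the validation round: designs drawn from the data on random variants, tested in the same kind of assay. Group labels follow the data file (Ctrl: baseline library sampled from a position-specific scoring matrix, with some repeated check sequences; Rand: our label for a block that the file lists under HC and that is probably the random mutants of the ten best first-round binders; En: ensemble of fine-tuned language models; GP: Gaussian process model; GPLM: also part of the Gaussian process libraries; HC: hill climbing; Gen: genetic algorithm; Gibbs: Gibbs sampling; a sequence that several methods proposed may carry one label only). The assay is AlphaSeq: two haploid yeast populations carry antibody and antigen on their surface. Pairs that bind mate more often; barcode pairs of the diploids are counted by sequencing. A regression on co-assayed BCL2-family reference pairs converts the normalised counts of each replicate to an apparent Kd. Mating was done six times.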

Parent: Ab-14, a human scFv built as VH, a (GGGGS)3 linker, VL. Only the CDRs of the heavy chain vary.
VH: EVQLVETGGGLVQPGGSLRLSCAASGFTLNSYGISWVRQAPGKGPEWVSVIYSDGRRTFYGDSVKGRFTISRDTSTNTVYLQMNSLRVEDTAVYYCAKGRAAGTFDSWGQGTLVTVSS
VL: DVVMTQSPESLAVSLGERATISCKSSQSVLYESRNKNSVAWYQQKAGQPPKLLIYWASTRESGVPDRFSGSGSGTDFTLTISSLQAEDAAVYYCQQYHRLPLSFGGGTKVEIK

Variants are written as CDR1, CDR2 and CDR3 of the heavy chain (limits as in the source). Parent: GFTLNSYGIS, VIYSDGRRTFYGDSVK, GRAAGTFDS. Each Kd is an estimate from the mating assay, the geometric mean of the replicates in which the pair was seen; lower is stronger. An entry "nd" has no value in the source: the pair was not observed among the diploids in any replicate. This suggests poor binding but is not conclusive. The authors averaged sequences with at least three values out of six and counted those with two or fewer as poor binders. Three control strains display no target. For all heavy chain designs, 1% of the pairings with them gave a signal, with a median of 120 nM and one signal in twenty below 7.0 nM, so weak values seen in few replicates may be background. The control count says in how many pairings with the empty strains this scFv gave a signal. A sequence measured in both rounds can read differently, since the two assays cover different ranges. The parent sequence was in this pool as ten entries: three were never detected, three once, and four in most replicates, with averages from 2.2 nM to 240 nM.

| # | CDR-H1 | CDR-H2 | CDR-H3 | group | apparent Kd | seen in | signal with controls |
|---|---|---|---|---|---|---|---|
| 1 | GFNLNEYGIS | VIYADGMRTFYTDSVK | GEVAGTFDN | En_HC | 1.3 nM | 6 of 6 | 0 of 18 |
| 2 | GFDLNSYGIS | VIYSDGRRTFYGDSVK | GKTAGTFDV | GPLM_Gibbs | 1.3 nM | 6 of 6 | 0 of 18 |
| 3 | GFTLNEYGIS | VIYSDGRRTFYQDSVK | GRAAVTFDQ | GP_HC | nd | 0 of 6 | 0 of 18 |
| 4 | GFDLNEYGIS | VIYADGQRTAYADDVK | GEVAGTFDV | En_Gen | 310 pM | 6 of 6 | 1 of 18 |
| 5 | GFTLNSYGIS | VIYSDGRRTFYSDSVK | GRAAGTFTS | Ctrl | nd | 0 of 6 | 0 of 18 |
| 6 | GFDLNEYGIS | VIYADGMRTFYADSVK | GQVAGTFDM | En_HC | 3.9 nM | 6 of 6 | 0 of 18 |
| 7 | GFTLNSYGIS | VIYSDGRRTFYDDSVK | GADAGTFDS | GP_HC | 1.3 µM | 1 of 6 | 0 of 18 |
| 8 | GFDLNSYGIS | VIYSDGKRTFYGDSVK | GRVAGTFDS | GP_Gen | 8.0 nM | 6 of 6 | 0 of 18 |
| 9 | GFELESYGIS | VIYSDGRRTFYGDSVK | GKAAGTFDS | GP_Gibbs | 15 nM | 6 of 6 | 1 of 18 |
| 10 | GFSLNSYGIS | VIYSDGRRTFYSDAVK | GRTAGTFDS | GPLM_Gen | 1.1 nM | 6 of 6 | 0 of 18 |
| 11 | GFDLNEYGIS | VIYADGMRTAYADDVK | GNIAGTFDI | En_Gen | 120 pM | 6 of 6 | 0 of 18 |
| 12 | GFSLNEYGIS | VIYSDGRRTFYGDSVK | GRQAGTFES | GP_Gibbs | 1.5 nM | 6 of 6 | 1 of 18 |
| 13 | GETLNSYGIS | VIYADGRRTFYHDSVK | GRAAGTFDS | GP_HC | 3.5 nM | 6 of 6 | 1 of 18 |
| 14 | GFQLNSYGIS | VIYSDGRRTFYSDSVK | GHVAGTFDS | GP_HC | 1.5 nM | 6 of 6 | 0 of 18 |
| 15 | GFSLNEYGIS | VIYADGRRTFYGDSVK | GKAAGTFDS | GPLM_Gen | 790 pM | 6 of 6 | 0 of 18 |
| 16 | GFDLNEYGIS | VIYADGMRTAYSDNVK | GEVAGTFDV | En_Gen | 290 pM | 6 of 6 | 0 of 18 |
| 17 | GFWLNEYGIS | VIYSDGRRTFYHDSVK | GKAAGTFDS | GP_Gen | 7.3 nM | 5 of 6 | 0 of 18 |
| 18 | GVTLNSYGIS | VIYSDGRRTFYGDNVK | GRNVGTFFS | Ctrl | nd | 0 of 6 | 0 of 18 |
| 19 | GFTLNSYGIS | VIYSDGMRTFYSDSVK | GRVAGTFDS | GPLM_Gibbs | 39 nM | 5 of 6 | 1 of 18 |
| 20 | GFDLNEYGIS | VIYADGMRTAYTDKVK | GENAGTFDV | En_Gen | 190 pM | 6 of 6 | 0 of 18 |
| 21 | GFNLNEYGIS | VIYADGMRTFYADSVK | GQVAGTFDV | En_HC | 300 pM | 6 of 6 | 0 of 18 |
| 22 | GFHLNSYGIS | VIYSDGRRTFYQDSVK | GKAAGTFDS | GP_Gen | 10 nM | 6 of 6 | 0 of 18 |
| 23 | GFWLNDYGIS | VIYSDGRRTFYGDSVK | GQTAGTFDS | GPLM_Gibbs | 15 nM | 6 of 6 | 0 of 18 |
| 24 | GFDLNEYGIS | VIYADGKRTAYADSVK | GNVGGTFDV | En_Gen | 640 pM | 6 of 6 | 1 of 18 |
| 25 | GFNLNEYGIS | VIYADGRRTAYTDDVK | GEFAGTFDL | En_HC | 3.8 nM | 6 of 6 | 0 of 18 |
| 26 | GFALNLYGIS | VIYSDGRRTFYSDSVK | GRAAATFDS | Ctrl | nd | 0 of 6 | 2 of 18 |
| 27 | GFDLNEYGIS | VIYADGVRTFYVDSVK | GETAGTFDF | En_HC | 670 pM | 6 of 6 | 0 of 18 |
| 28 | GFTLNEYGIS | VIYSDGRRTAYGDNVK | GRVAGTFDS | Ctrl | 1.3 nM | 6 of 6 | 0 of 18 |
| 29 | GFDLDQYGIS | VIYADGQRTQYANDVK | GKYAGSMLS | En_Gibbs | nd | 0 of 6 | 0 of 18 |
| 30 | GFDLNEYGIS | VIYADGQRTAYADKVK | GEVAGTFDV | En_Gen | 380 pM | 6 of 6 | 0 of 18 |
| 31 | GFTLDSYRIS | VIYSDNRRTFYGDSVK | GRAAGTALS | Rand | nd | 0 of 6 | 0 of 18 |
| 32 | KFQLNDYGIS | VIYSDGRRTFYGDSVK | GRQAGTFDS | GP_Gibbs | 440 nM | 3 of 6 | 0 of 18 |
| 33 | GFYLNSYGIS | VIYSDGKRTFYGDSVK | GRTAGTFDS | GPLM_Gen | 48 nM | 3 of 6 | 0 of 18 |
| 34 | GFDLNEYGIS | VIYADGMRTFYADDVK | GNNAGTFDI | En_Gen | 870 pM | 6 of 6 | 0 of 18 |
| 35 | GFSLNDYGIS | VIYSDGKRTFYGDSVK | GRAAGTFDS | GP_HC | 660 pM | 6 of 6 | 0 of 18 |
| 36 | GFDLNEYGIS | VIYADGQRTAYADSVK | GKEAGTFDS | En_HC | 400 pM | 6 of 6 | 0 of 18 |
| 37 | GLTLNDYGIS | VIYSDGRRTFYGDSVK | GRADGTFDS | Ctrl | nd | 0 of 6 | 0 of 18 |
| 38 | GFTLNSYGIS | VIYSDGRRTSYGDSVK | GRAAGTFDH | Ctrl | nd | 0 of 6 | 0 of 18 |
| 39 | GFTLNSYGIS | VIYSDGRRTFYGDSVK | GHAKGTFDS | Ctrl | nd | 0 of 6 | 0 of 18 |
| 40 | GFELNSYGIS | VIYADGRRTFYGDSVK | GRAAGTNKS | GP_HC | 1.5 µM | 2 of 6 | 0 of 18 |
| 41 | GFTLNSYGIS | VIYSDGRRTFYSDSVK | GNECGTFDS | Ctrl | nd | 0 of 6 | 0 of 18 |
| 42 | GFDLNEYGIS | VIYADGRRTAYIDSVK | GHLAGTFDV | En_HC | 540 pM | 6 of 6 | 0 of 18 |
| 43 | GFELNSYGIS | VIYADGRRTFYGDSVK | GEAAGTFDS | GPLM_Gen | 1.7 nM | 6 of 6 | 0 of 18 |
| 44 | GFDLNEYGIS | VIYADGSRTAYADSVK | GETAGTFDQ | En_Gen | 9.9 nM | 6 of 6 | 1 of 18 |
| 45 | GFTLNEYGIS | VIYSDGRRTFYTDSVK | GRAAGTFDV | GP_HC | 870 pM | 6 of 6 | 0 of 18 |
| 46 | GFTLNSYGIS | VIYSDGRRTFYGDSVK | ARAAGTFDW | Ctrl | nd | 0 of 6 | 0 of 18 |
| 47 | GFDLDEYGIS | VIYADGLRTAYTDSVK | GENAGTFDV | En_Gen | 16 nM | 5 of 6 | 0 of 18 |
| 48 | GFNLDEYGIS | VIYADGRRTFYADSVK | GQVAGTFDF | En_HC | 740 pM | 6 of 6 | 0 of 18 |
| 49 | GFQLNSYGIS | VIYSDGRRTFYVDSVK | GQTAGTFDS | GP_Gibbs | 75 nM | 6 of 6 | 1 of 18 |
| 50 | GFDLDEYGIS | VIYADGVRTAYADSVK | GTNAGTFDI | En_Gen | 310 pM | 6 of 6 | 0 of 18 |
| 51 | GFDLNSYGIS | VIYSDGRRTFYVDKVK | GRNAGTFDS | GP_Gibbs | 9.7 nM | 6 of 6 | 0 of 18 |
| 52 | GFDLNEYGIS | VIYADGKRTYYADSVK | GNVAGTFDV | En_Gen | 4.9 nM | 6 of 6 | 0 of 18 |
| 53 | SFTLNSYGIS | VIYSDGRRTFYGDSVK | GQEAGTFDT | GP_Gibbs | 12 nM | 3 of 6 | 0 of 18 |
| 54 | GESLEEYGIS | VIYADGMREQYVDSVK | GRQGGFFVV | En_Gibbs | nd | 0 of 6 | 0 of 18 |
| 55 | GFSLNEYGIS | VIYSDGRRTFYGDSVK | GMAAGTFDS | GPLM_Gen | 290 pM | 6 of 6 | 0 of 18 |
| 56 | GFDLDEYGIS | VIYADGKRTFYADSVK | GENAGTFDV | En_Gen | 550 pM | 6 of 6 | 0 of 18 |
| 57 | GFTLNSTGIS | VIYSDGERTFYGDSVK | GRRAGTFDS | Ctrl | nd | 0 of 6 | 1 of 18 |
| 58 | GYTLDSYGIS | VIYSDGRRTFYGDSVK | GRAAGTALS | Rand | nd | 0 of 6 | 0 of 18 |
| 59 | GFTLNSYGIS | VIYGDGRRTFYGDSVK | GSAAGTFDQ | Ctrl | nd | 0 of 6 | 0 of 18 |
| 60 | GFTLNSYGIS | VIYSDGRRTHYVDSVK | QTAAGTIDS | Ctrl | nd | 0 of 6 | 1 of 18 |
| 61 | GFELNSYGIS | VIYSDGRRTFYKDSVK | GRTAGTFDT | GP_Gen | 6.0 nM | 6 of 6 | 1 of 18 |
| 62 | GFDIDEYGIS | VIYADGKRTFYADSVK | GTNAGTFDS | En_HC | 370 pM | 6 of 6 | 0 of 18 |
| 63 | GFNLNSYGIS | VIYSDGRRTGYGDSVK | GRAAGTSDS | Ctrl | nd | 0 of 6 | 0 of 18 |
| 64 | GFMLNSYGIS | VIYSDGRRTFYSDSVK | GQTAGTFDS | GP_Gibbs | 1.6 nM | 4 of 6 | 0 of 18 |
| 65 | GFSINEYGIS | VIYADGTRTAYADDVK | GAYDTVAVL | En_Gibbs | nd | 0 of 6 | 1 of 18 |
| 66 | GFTLNSYGIS | VIYSDGRRTFYADDVK | GQAAGTFDK | GP_Gen | 13 nM | 6 of 6 | 2 of 18 |
| 67 | GFLLDSYGIS | VIYSDGRRTFYGASVK | GRQAGTALS | Rand | nd | 0 of 6 | 0 of 18 |
| 68 | GTTLNSYGIS | VIYSDGRRTFYSDSVK | GRAGGTFDS | Rand | 18 nM | 6 of 6 | 0 of 18 |
| 69 | GFELNEYGIS | VIYSDGRRTFYGDSVK | GRAAGTFDF | GP_HC | 2.8 nM | 6 of 6 | 0 of 18 |
| 70 | GFDLNEYGIS | VIYADGMRTFYTDSVK | GEHAGIFDV | En_HC | 2.1 nM | 6 of 6 | 0 of 18 |

Again, the first 11 entries without any signal:

| CDR-H1 | CDR-H2 | CDR-H3 | group | apparent Kd | seen in | signal with controls |
|---|---|---|---|---|---|---|
| GFTLNEYGIS | VIYSDGRRTFYQDSVK | GRAAVTFDQ | GP_HC | nd | 0 of 6 | 0 of 18 |
| GFTLNSYGIS | VIYSDGRRTFYSDSVK | GRAAGTFTS | Ctrl | nd | 0 of 6 | 0 of 18 |
| GVTLNSYGIS | VIYSDGRRTFYGDNVK | GRNVGTFFS | Ctrl | nd | 0 of 6 | 0 of 18 |
| GFALNLYGIS | VIYSDGRRTFYSDSVK | GRAAATFDS | Ctrl | nd | 0 of 6 | 2 of 18 |
| GFDLDQYGIS | VIYADGQRTQYANDVK | GKYAGSMLS | En_Gibbs | nd | 0 of 6 | 0 of 18 |
| GFTLDSYRIS | VIYSDNRRTFYGDSVK | GRAAGTALS | Rand | nd | 0 of 6 | 0 of 18 |
| GLTLNDYGIS | VIYSDGRRTFYGDSVK | GRADGTFDS | Ctrl | nd | 0 of 6 | 0 of 18 |
| GFTLNSYGIS | VIYSDGRRTSYGDSVK | GRAAGTFDH | Ctrl | nd | 0 of 6 | 0 of 18 |
| GFTLNSYGIS | VIYSDGRRTFYGDSVK | GHAKGTFDS | Ctrl | nd | 0 of 6 | 0 of 18 |
| GFTLNSYGIS | VIYSDGRRTFYSDSVK | GNECGTFDS | Ctrl | nd | 0 of 6 | 0 of 18 |
| GFTLNSYGIS | VIYSDGRRTFYGDSVK | ARAAGTFDW | Ctrl | nd | 0 of 6 | 0 of 18 |